Screens (PubChem)
Sampled rows, rich in hits. Any-hit rate of the full collection: about 3.6%.
VDR inhibitor = inhibitors of human vitamin D receptor. 0.93% of 400,000 active. AID 504847. Potency, µM, without a hit: max response, negative = inhibition, most hits filed as inhibitors. P11473. VDR-SRC2-3 peptide fluorescence polarization, 2 h; note: potency is the fitted concentration of half-maximal effect; % is set by controls: 0 for no effect and ±100 for the full control effect
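Fluorescence polarization assay measuring small-molecule disruption of VDR binding to the coregulator peptide SRC2-3. Compounds were pin-transferred (23 nl) into the reagent mix and incubated 2 h at room temperature before reading.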
GCN5L2 inh = inhibitors of human GCN5L2 histone acetyltransferase; 0.21% of 390,000 active; Potency, µM (titrated, usually from 58.9 µM), for the others: at the highest dose activity change, negative = inhibition, most hits filed as inhibitors; GCN5L2 HAT assay, ThioGlo1 CoA-SH fluorescence; Q92830; AID 504327; note: potency is the fitted concentration of half-maximal effect; % is set by controls: 0 for no effect and ±100 for the full control effect
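Free CoA generated was detected with ThioGlo1 (50uM) fluorescence at Ex340nm/Em540nm, read immediately and after 20 min at room temperature. Enzyme, 20 nM in HEPES pH 7.5 buffer, saw compounds 15 min before adding 75uM H3(1-25) peptide and 70uM acetyl-CoA.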
Rango-impB inh = Rango-importin beta binding inhibition; Potency, µM (top dose mostly 92.2 µM), for the others: at the top dose inhibition of complex formation; Q14974; Rango CFP/YFP FRET sensor + importin beta, 45 min; 0.031% of 340,000 active; AID 540263; calls by dose curve;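 note: potency is the fitted concentration of half-maximal effect; 0% = DMSO wells and 100% = buffer wells lacking importin beta; nearly all actives have a fitted effect of over 15% in size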
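Inhibition scored from the CFP 486 nm/YFP 530 nm FRET ratio 45 min after adding 0.125 microM importin beta to 50 nM Rango biosensor preincubated 5 min with compound (room temperature, PBS with DTT, Tween-20, BSA). No-importin wells as positive control.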
PLK1 PBD block = inhibitors of human PLK1 polo-box domain binding | Plk1 PBD binding of FITC phosphopeptide, fluorescence polarization | Potency, µM, for inactives: max response, negative = inhibition, usual class: inhibitors | 2.8% of 360,000 active | AID 720504; note: potency is the fitted concentration of half-maximal effect; series mostly up to about 57 µM; % is set by controls: 0 for no effect and ±100 for the full control effect; nearly all actives have a fitted effect of over 65% in size
PI5P4K alpha inh = PI5P4K alpha (human) kinase inhibition. P48426. PI5P4Kalpha enzyme, ADP-Glo luminescence, 60 min; active compounds read low. max response, %. 1.2% of 330,000 active; active = max response of -50% or lower; inconclusive = between -30% and -50%; inactive = -30% or higher; note: value at the top dose of about 77 µM; % is set by controls: 0 for no effect and ±100 for the full control effect
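Reactions run in 0.038 M HEPES pH 7.4, 0.28 mM EGTA, 0.1% CHAPS and 5% DMSO, with PI5P4Kalpha, substrate, compound and 5 microM ATP final, one hour at room temperature. Readout is ADP-Glo luminescence.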
Rango release inh = prevents RanGTP from dissociating the Rango-importin beta complex; O95149+P62826; Biochemical FRET Rango-importin beta, RanGTP-induced dissociation; Potency, µM (titrated, usually from 46.1 µM), without a hit: top-dose activity change, negative = inhibition; 0.071% of 340,000 active; AID 540253; calls by dose curve; note: potency is the fitted concentration of half-maximal effect; % of control where 0% means no effect; nearly all actives have a fitted effect of over 45% in size
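Recombinant Rango FRET biosensor (EYFP–snurportin 1 IBB–cerulean CFP10) at 0.1 uM premixed with 0.25 uM importin beta in PBS, 1 mM DTT, 0.02% Tween-20, 0.1% BSA. Compound added 5 min; RanGTP-RCC1 (0.6 uM Ran, 2 mM GTP, 0.2 uM RCC1) then triggers release, read at 45 min.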
* = called active by the depositor; ? = inconclusive; . = not tested or not shown; ! = not active in a repeat. Unless noted, calls come from the whole dose curve; as a rule, active = well fitted curve in the direction sought with a large enough effect; inconclusive = small, poorly fitted or top-dose-only effect, or another doubt; inactive = no such curve, though single readings can be large; an effect the other way counts as inactive or inconclusive.

Under each structure: VDR inhibitor | GCN5L2 inh | Rango-impB inh | PLK1 PBD block | PI5P4K alpha inh | Rango release inh
1: CCOc1ccc(S(=O)(=O)N(CC(=O)N/N=C/c2ccc(-c3ccc([N+](=O)[O-])cc3)o2)c2ccccc2)cc1
 : -9% | ? | ? | -10% | -67* | ?
2: CC(=O)Oc1cc(OC(C)=O)c2c(c1)OC(c1ccc(OC(C)=O)c(OC(C)=O)c1)C(OC(C)=O)C2 (stereo unspecified)
 : 7% | 1% | . | . | . | .
3: Cc1ccc(N2C(=O)N(CC(=O)C(C)(C)C)c3ccccc3S2(=O)=O)cc1C
 : 6% | 3% | . | . | . | .
4: O=C(Oc1ccc(C(=S)N2CCOCC2)cc1)c1ccccc1F
 : ? | -23% | 1% | 21µM* | -5 | -13%
5: O=C(Oc1ccc(C(=S)N2CCOCC2)cc1Br)c1ccccc1F
 : ? | -12% | -1% | 24µM* | 0 | 20%
6: O=C(Oc1ccc(C(=S)N2CCOCC2)cc1Cl)c1ccccc1F
 : -29% | -18% | 0% | ? | -3 | -4%
7: O=S(=O)(NC1CC2CCC1C2)c1ccc(Br)cc1 (stereo unspecified)
 : -23% | -8% | 0% | -9% | -2 | -1%
8: O=S(=O)(NC1CC2CCC1C2)c1ccc(Br)s1 (stereo unspecified)
 : -20% | -16% | -2% | 3.4µM* | ? | -1%
9: CCN1/C(=C/c2ccc3cc(C)ccc3[n+]2CC)Sc2cc(C)ccc21
 : 1% | 1% | ? | 5% | -19 | ?
10: CCCCN1/C(=C/c2ccc3ccccc3[n+]2CC)Sc2ccccc21
 : 8% | -5% | 46µM* | 10% | -18 | 16%
11: Fc1ccccc1Nc1nc(N2CCOCC2)nc(N2CCOCC2)n1
 : 12% | -2% | -1% | 0% | 4 | 1%
12: COc1cc(C=O)ccc1Oc1nc(Nc2ccc(F)cc2F)nc(N2CCOCC2)n1
 : -24% | -8% | -3% | 21µM* | -15 | -5%
13: COc1cc(C(=O)OCc2cc(=O)n3ccsc3n2)cc(OC)c1OC
 : 10% | 10% | . | . | . | .
14: CCCCC/C=C\C/C=C\CC1OC1C/C=C\CCCC(=O)O (stereo unspecified)
 : 1% | -7% | . | . | . | .
15: CCCCC/C=C\C/C=C\C/C=C\C/C=C\CCCCCC(=O)O
 : -1% | -7% | . | . | . | .
16: CC/C=C\C/C=C\C/C=C\CCCCCCCCCCCC(=O)O
 : 50µM* | 11% | . | . | . | .
17: CC/C=C\C/C=C\C/C=C\C/C=C\C/C=C\CCCC(=O)O
 : 40µM*! | -10% | . | . | . | .
18: CCCCCCCCCCC/C=C\C(C)(C)/C=C\CCCC(=O)O
 : -3% | 7.9µM* | . | . | . | .
19: CC/C=C\C/C=C\C/C=C\CCCCCCCC(=O)O
 : 22µM*! | 10µM*! | ? | ? | ? | -9%
20: CC/C=C\C/C=C\C/C=C\CCCCCCCCCC(=O)O
 : -21% | 6% | . | . | . | .
21: CC(C)Sc1nc2c(c(=O)[nH]c(=O)n2C)n1CC(O)COc1ccccc1 (stereo unspecified)
 : 3% | -9% | -6% | 24µM* | -13 | 28%
22: Cn1c(=O)[nH]c(=O)c2c1nc(N1CCCC1)n2CC(O)COc1ccccc1 (stereo unspecified)
 : -7% | -4% | -5% | -11% | -3 | -24%
23: CC(O)CSc1nc2c(c(=O)[nH]c(=O)n2C)n1CC(O)COc1ccccc1 (stereo unspecified)
 : ? | -12% | -3% | 27µM* | -2 | -6%
24: CCSc1nc2c(c(=O)[nH]c(=O)n2C)n1CC(O)COc1ccc(Cl)cc1 (stereo unspecified)
 : -12% | 3% | . | . | . | .
25: CCc1ccc(NC(=O)CC2C(=O)N(c3cccc(C)c3)C(=O)N2CCC(C)C)cc1 (stereo unspecified)
 : -3% | -5% | . | . | . | .
26: Cc1ccc(NC(=O)c2c(C)nn(-c3ccccc3)c2Cl)cc1
 : -6% | 15% | -7% | 27µM* | 0 | 5%
27: CCc1ccc(CNC(=O)COc2cc(=O)n(CC)c3ccccc23)cc1
 : -5% | -4% | . | . | . | .
28: CCOC(=O)c1sc(NC(C)=O)nc1C
 : -25% | -2% | 0% | 27µM* | . | ?
29: O=S(=O)(O)c1ccc(O)c2cc(Nc3ccccc3)ccc12
 : ? | . | ? | 4.7µM* | -105* | -1%

4 structures from above, sorted by molar mass, descending.
Under each structure: VDR inhibitor | GCN5L2 inh | Rango-impB inh | PLK1 PBD block | PI5P4K alpha inh | Rango release inh
24: CCSc1nc2c(c(=O)[nH]c(=O)n2C)n1CC(O)COc1ccc(Cl)cc1 (stereo unspecified)
 : -12% | 3% | . | . | . | .
9: CCN1/C(=C/c2ccc3cc(C)ccc3[n+]2CC)Sc2cc(C)ccc21
 : 1% | 1% | ? | 5% | -19 | ?
29: O=S(=O)(O)c1ccc(O)c2cc(Nc3ccccc3)ccc12
 : ? | . | ? | 4.7µM* | -105* | -1%
19: CC/C=C\C/C=C\C/C=C\CCCCCCCC(=O)O
 : 22µM*! | 10µM*! | ? | ? | ? | -9%
